# Earlier results, collected in paper PMC10035387 (Cancer Research Communications, 2022).
# Conditions: cited from earlier work
sequence,measurement,value
FOLFIRINOX,Incidence of grade 3/4 neutropenia,45.7%
